Vif-A3F inh = inhibitors of Vif-A3F interaction; HeLa A3F-eYFP + Vif (tagged APOBEC3F with the HIV-1 protein that degrades it), YFP fluorescence increase; Potency, µM (series often up to 46.1 µM), for inactives: top-dose activity, negative = active; 390,000 compounds, 0.2% hits; AID 602313; further: potency means the concentration at half of the fitted maximal effect; % of control where 0% means no effect; nearly all actives have a fitted effect of over 65% in size
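Fluorescence increase (Ex 488/Em 500-530) after overnight compound treatment at 37 deg C flags inhibition of Vif-driven A3F-eYFP loss in stable HeLa A3F-eYFP/Vif cells seeded overnight beforehand.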
miR-21 reporter = miR-21 reporter, rising signal. HeLa miR-21 FLuc reporter, luciferase, 48 h. Potency, µM (highest dose often 38.3 µM), for the others: at the highest dose reporter change, positive = more light. 340,000 tested, under 10 active. AID 2288; active = well fitted rising curve with a large enough effect; inconclusive = small, poorly fitted or top-dose-only effect; inactive = no such curve, though single readings can be large or run the other way;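 further: % of control where 0% means no effect; miR-21 action dims this reporter so a rising signal means less miR-21 action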
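Compounds were titrated across several concentrations (up to approximately 40 uM) and incubated 48 hours with HeLa miR-21-FLuc reporter cells (miR-21 target sequence downstream of FLuc, endogenous miR-21). Readout was firefly luciferase luminescence after lytic detection reagent.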
Vif-A3G inh = blocks the Vif interaction with human APOBEC3G | Q9HC16 | HeLa A3G-eYFP + Vif (tagged APOBEC3G with the HIV-1 protein that degrades it), YFP fluorescence, overnight | Potency, µM (titrated, usually from 46.1 µM), for the others: at the top dose activity, negative = active, actives largely listed as inhibitors | 410,000 compounds, 0.076% hits | AID 602310; further: potency means the concentration at half of the fitted maximal effect; on the % scale 0 is the no-effect control and ±100 the full control effect; nearly all actives have a fitted effect of over 60% in size
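Read-out is eYFP fluorescence (Ex 488/Em 500-530) from Vif-expressing HeLa A3G-eYFP cells; more signal means A3G escaped Vif-mediated degradation. Cells plated overnight, compound pinned in, incubated overnight at 37 deg C.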
Epigenetic derep = derepresses silenced GFP reporter in murine cells; murine LDR cells, GFP reporter derepression, 30 h; Potency, µM (series often up to 53.9 µM), for inactives: at the highest dose GFP activation, most hits filed as activators; 280,000 compounds, 0.2% hits; further: potency means the concentration at half of the fitted maximal effect; % of control where 0% means no effect; nearly all actives have a fitted effect of over 60% in size
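In this reporter-derepression format, murine cells bearing a silenced integrated CMV-GFP locus incubate with test compound (30 h, 37 C), then are washed and imaged; fluorescent objects of 20–120 um count as induced cells.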
Starred values were filed as active, the others as inactive; i = inactive; ? = inconclusive; . = no result given; ! = not active in a repeat. In the library only some 0.34% were active in any assay of this set; here they are far more common. Unless noted, the call rests on the fitted dose curve; in most records, active means well fitted curve in the direction sought with a large enough effect; inconclusive means small, poorly fitted or top-dose-only effect, or another doubt; inactive means no such curve, though single readings can be large; an effect the other way counts as inactive or inconclusive.

Compound	Vif-A3F inh	miR-21 reporter	Vif-A3G inh	Epigenetic derep
CCCc1ccc(OC(=O)c2sc3ncn(Cc4cccc(F)c4)c(=O)c3c2C)cc1	2%	0%	2%	1%
CCOc1ccc(S(=O)(=O)NCCc2csc3nc(-c4cccc(C)c4)nn23)cc1	4%	9%	-2%	2%
CC(C)(C)n1ncc2c(=O)n(Cc3ccc(Cl)c(F)c3)cnc21	.	.	1%	.
CCn1c(=O)c2sccc2n2c(CCCC(=O)N3CCN(c4cc(C)ccc4C)CC3)nnc12	-1%	-1%	-10%	8%
N#C/C(=C\c1ccc(-c2ccccc2C(=O)O)o1)c1nc2ccccc2[nH]1	22µM*!	-10%	-9%	0%
COc1ccc(C(=O)Nc2nnc(S(=O)(=O)N(C)c3ccc(Cl)cc3)s2)cc1OC	0%	7%	3%	0%
O=C/C(=C\Nc1ccccn1)c1nc2ccccc2o1	28µM*	-19%	?	9%
O=C(Nc1cccc(C(F)(F)F)c1)C1CCN(S(=O)(=O)c2cccc3nsnc23)CC1	-1%	0%	-1%	-1%

By substructure, the entries above with a carbonyl joined to an NH by a bond outside any ring (2)
Compound	Vif-A3F inh	miR-21 reporter	Vif-A3G inh	Epigenetic derep
COc1ccc(C(=O)Nc2nnc(S(=O)(=O)N(C)c3ccc(Cl)cc3)s2)cc1OC	0%	7%	3%	0%
O=C(Nc1cccc(C(F)(F)F)c1)C1CCN(S(=O)(=O)c2cccc3nsnc23)CC1	-1%	0%	-1%	-1%

The listing picks up with the 3 entries that preceded the break.
Compound	Vif-A3F inh	miR-21 reporter	Vif-A3G inh	Epigenetic derep
COc1ccc(C(=O)Nc2nnc(S(=O)(=O)N(C)c3ccc(Cl)cc3)s2)cc1OC	0%	7%	3%	0%
O=C/C(=C\Nc1ccccn1)c1nc2ccccc2o1	28µM*	-19%	?	9%
O=C(Nc1cccc(C(F)(F)F)c1)C1CCN(S(=O)(=O)c2cccc3nsnc23)CC1	-1%	0%	-1%	-1%
CCCCNc1ccc2c3c(cccc13)C(=O)N(CCCC)C2=O	-39%	8%	4%	3.2µM*
O=C(/C=C/c1ccco1)N1CCc2ccccc21	11µM*	-30%	?	2%
O=C(Cn1c(=O)oc2cc(S(=O)(=O)N3CCCC3)ccc21)Nc1ccc(F)cc1F	.	-5%	.	-4%
COc1ccc2c(n1)Sc1nc3ccccc3nc1N2	?	-54%	?	6.3µM*
N#C/C(=C\c1ccc(N2CCOCC2)o1)C(=O)NCCc1ccccc1	22µM*	-36%	2%	-2%
CCCCOc1ccc(S(=O)(=O)Nc2ccc(-c3ccc(N4CCCCC4)nn3)cc2)cc1	1%	-1%	1%	1%
CCCc1cnc2c(c1SCC(=O)Nc1ccc(C)c(Cl)c1)c(=O)n(C)c(=O)n2C	-9%	3%	1%	12%
CC(=O)Oc1c(-c2ccc(Br)o2)oc2ccccc2c1=O	13µM*	-4%	-7%	.
COc1ccc(-c2oc3ccccc3c(=O)c2OC(C)=O)cc1	10%	-5%	-11%	-1%
Nc1ncnc2c1ncn2[C@@H]1O[C@H](CNCc2ccc(OCc3ccccc3)cc2)[C@@H](O)[C@H]1O	-13%	.	22µM*	.
Nc1ncnc2c1ncn2[C@@H]1O[C@H](CNCc2ccc(OCC(=O)Nc3ccccn3)cc2)[C@@H](O)[C@H]1O	5%	.	-4%	.
CCN(CC)c1ccc(/C=C2\SC(=O)N(C(C)C)C2=O)o1	?	?	?	7.1µM*
Cc1ccc(Cn2c(C)c(CNC(C)c3ccccc3)c(C(=O)O)c2C)cc1 (stereo not given)	5%	4%	6%	-2%
Cc1cc(C(=O)N/N=C\c2cc(C(C)(C)C)ccc2O)n[nH]1	5%	2%	-19%	.
CC(=O)N/N=C/c1cc(C(C)(C)C)cc(/C=N/NC(C)=O)c1O	22µM*	20%	13µM*	4%
O=C(NC1CCCCCC1)c1ccc2c(c1)sc1nc(-c3ccccc3)cn12	5µM*	-1%	0%	1%

The results go on.
compound,Vif-A3F inh,miR-21 reporter,Vif-A3G inh,Epigenetic derep
COc1ccc(Cn2c(=O)c3oc4ccccc4c3n(Cc3ccc(F)cc3)c2=O)cc1,0%,3%,0%,11%
COc1cc(-c2nc3ccc(C)cn3c2NCc2ccccc2)ccc1SC1CCCCC1,-1%,.,10µM*,.
CCOc1ccccc1Nc1nnc(-c2cc3cc(OC)ccc3oc2=O)s1,7.1µM*,-2%,-16%,18µM*
COc1ccc2oc(=O)c(-c3nc4ccccc4o3)cc2c1,13µM*,-60%,?,0%
CCOc1ccc2cc(-c3nnc(Nc4ccccc4F)s3)c(=O)oc2c1,?,-18%,6%,3.5µM*
COc1ccc2oc(=O)c(-c3nnc(NCc4ccco4)s3)cc2c1,?,-9%,-31%,17%
Cc1ccc(CNC(=O)c2ccc3c(c2)NC(=O)C(CS(=O)(=O)Cc2cccc(C)c2)N3)cc1 (stereo not given),22µM*,-5%,-13%,?
CC[N+](C)(C)c1ccc(/C=C/c2ccc3ccccc3n2)cc1,.,.,-5%,.
CC[N+](C)(C)c1ccc(/C=C/c2ccncc2)cc1,.,.,10µM*,.
COc1ccc(Cl)c(Cn2cnc3c(cnn3C(C)(C)C)c2=O)c1F,.,.,-1%,.
Cn1c(O)c(N=N/C(=N/c2ccccn2)c2ccccn2)c2cc(Br)ccc21,.,.,.,-2%
Cc1cc(C)cc(NC(=O)Cn2cc(C(=O)C3CCCCC3)c3ccccc32)c1,7.1µM*,-6%,?,3%
N#CC(C(=O)NCc1ccccc1)c1nc2ccccc2nc1N1CCCC1 (stereo not given),10µM*,-5%,-1%,?
CCCCCNC(=O)C(C#N)c1nc2ccccc2nc1N1CCCC1 (stereo not given),7.1µM*,0%,-17%,0%
Cc1ccc(S(=O)(=O)C(C#N)c2nc3ccccc3nc2N2CCCC2)cc1 (stereo not given),22µM*,-7%,?,-1%
Cc1cc(C)cc(NC(=O)C2CCCN(c3nnc(-n4c(C)ccc4C)s3)C2)c1 (stereo not given),12%,-5%,14%,17%
CCc1ccc(NC(=O)Cn2c(=O)c(-c3ccccc3NC(C)=O)nc3ccccc32)cc1,4%,3%,3%,?
Cc1cc(C(F)(F)F)n2nc(-c3ccc(Br)cc3)cc2n1,0%,0%,0%,-2%
Cc1ccc(CNC(=O)CSc2nnc(C)c3c(C)n(-c4ccccc4)nc23)cc1,-2%,6%,-26%,4%
Cc1ccccc1Cn1c(=N)n(CC(=O)c2ccc([N+](=O)[O-])cc2)c2ccccc21,28µM*,1%,-28%,17%
CN(C)c1ccc(CNC(=O)C2CCCN(S(=O)(=O)c3ccc4c(ccn4C)c3)C2)cc1 (stereo not given),-8%,27%,-15%,0%
COc1ccc(/C=N/N(C)C2=NS(=O)(=O)c3ccccc32)cc1,-2%,-4%,-1%,.
CN(/N=C/c1ccc(N(C)C)cc1)C1=NS(=O)(=O)c2ccccc21,i,-5%,4.5µM*,.
CC(C)(C)n1ncc2c(=O)n(Cc3cccc(F)c3)cnc21,.,.,2%,.
Cc1ccc(NC2=C(Cl)C(=O)OC2OC(=O)c2ccccc2)c(C)c1 (stereo not given),-2%,0%,4%,16µM*
CCc1ccc(NC(=O)CC2C(=O)N(c3ccc(F)cc3)C(=O)N2Cc2ccc(F)cc2)cc1 (stereo not given),7%,14%,-2%,-2%
CCOC(=O)C1=C(O)c2ccccc2C(=O)/C1=C\c1ccc(C)cc1,25µM*,26%,?,?
CCCCCCCCCCCCCCCC[n+]1ccc(C)c2ccccc21,.,.,-11%,.
COC(=O)c1sccc1NC(=S)Nc1ccccc1,-9%,-12%,-3%,-1%
COC(=O)c1sccc1NC(=S)Nc1cc(C)cc(C)c1,25µM*,0%,1%,-1%
C=C[C@@H]1c2cc(C)ccc2N(S(=O)(=O)c2ccc(C)cc2)[C@H](c2ccc(C(C)(F)F)cc2)C1(C#N)C#N,.,.,-2%,.

Screens: PubChem, National Center for Advancing Translational Sciences (NCATS)
